Reference: patent US20020012620A1, “BACTERIAL LEACHING OF COPPER AND ZINC WITHOUT IRON LEACHING” (priority 1998, published 2002)

Test system: T. ferrooxidans
Assay type: cell-based, Thiobacillus ferrooxidans
Method: Bacterial leaching was performed in shake flask experiments with 250 ml Erlenmeyer™ flasks containing 95 ml of HP medium with and without inhibitors unless otherwise specified, 4 ml of inoculum (Fe^2+-grown T. ferrooxidans, S^0-grown T. thiooxidans or both) and 5 g of floatation tailings supplied by Cominco Research were used, as described below. The flasks were grown at 26° C. on a rotary shaker at 150 rpm for 14 days. At various time intervals, 5 ml samples were taken to determine the concentrations of dissolved zinc and iron in the leachate as well as the percentage of zinc and iron remaining in the precipitate (after filtration of the leachate).

**Q.** potassium chloride was tested. Which “effect on Zn selectivity” value did it give?
**A.** The value was “little effect”.
